This is one part of the list.

This note sets out measurements from publication PMC7723054.

T1: LIN28A (human?, UniProt Q9H9Z2 1-209)
T1 sequence: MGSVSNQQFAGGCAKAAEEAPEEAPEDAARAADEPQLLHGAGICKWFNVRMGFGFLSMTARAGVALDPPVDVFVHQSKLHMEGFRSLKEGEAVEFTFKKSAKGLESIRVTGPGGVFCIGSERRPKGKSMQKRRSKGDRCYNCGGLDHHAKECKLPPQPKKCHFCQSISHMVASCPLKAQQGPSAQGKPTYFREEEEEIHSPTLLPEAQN

T2: CIRBP (Homo sapiens, UniProt Q14011 1-172)
T2 sequence: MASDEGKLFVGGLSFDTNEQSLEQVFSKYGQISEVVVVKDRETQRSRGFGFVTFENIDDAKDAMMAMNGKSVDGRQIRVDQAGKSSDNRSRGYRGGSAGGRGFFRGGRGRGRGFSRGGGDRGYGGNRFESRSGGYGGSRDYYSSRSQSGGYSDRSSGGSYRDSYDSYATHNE

T3: DHX36 (Homo sapiens, UniProt Q9H2U1 1-1008)
T3 sequence: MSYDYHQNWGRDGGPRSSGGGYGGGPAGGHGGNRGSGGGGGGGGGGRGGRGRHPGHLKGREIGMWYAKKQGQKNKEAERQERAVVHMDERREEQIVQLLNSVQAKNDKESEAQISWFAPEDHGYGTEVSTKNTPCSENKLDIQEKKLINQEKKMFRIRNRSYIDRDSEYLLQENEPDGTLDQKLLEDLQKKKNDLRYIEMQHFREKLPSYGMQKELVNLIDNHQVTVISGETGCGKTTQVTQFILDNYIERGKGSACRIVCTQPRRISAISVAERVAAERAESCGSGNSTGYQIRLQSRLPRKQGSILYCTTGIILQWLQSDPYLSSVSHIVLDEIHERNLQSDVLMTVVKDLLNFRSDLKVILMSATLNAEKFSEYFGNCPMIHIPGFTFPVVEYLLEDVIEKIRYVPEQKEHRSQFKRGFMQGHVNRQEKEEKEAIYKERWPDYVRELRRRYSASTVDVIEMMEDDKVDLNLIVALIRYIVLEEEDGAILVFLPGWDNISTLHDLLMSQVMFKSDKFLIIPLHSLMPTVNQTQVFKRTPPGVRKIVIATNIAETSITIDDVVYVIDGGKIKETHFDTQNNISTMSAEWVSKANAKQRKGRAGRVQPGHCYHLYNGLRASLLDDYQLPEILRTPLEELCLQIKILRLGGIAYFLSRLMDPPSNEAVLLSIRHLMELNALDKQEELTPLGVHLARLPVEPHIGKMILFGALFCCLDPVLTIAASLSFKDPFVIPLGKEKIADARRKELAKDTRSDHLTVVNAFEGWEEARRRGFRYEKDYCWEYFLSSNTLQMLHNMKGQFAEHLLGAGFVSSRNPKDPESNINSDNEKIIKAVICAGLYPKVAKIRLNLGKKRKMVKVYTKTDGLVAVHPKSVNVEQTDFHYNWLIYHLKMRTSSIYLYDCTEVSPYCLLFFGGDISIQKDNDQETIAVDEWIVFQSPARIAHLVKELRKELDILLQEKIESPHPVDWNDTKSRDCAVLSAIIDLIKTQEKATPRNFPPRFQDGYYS

B1: hsa-mir-3687-1_3687-2 (structured_RNA)
RNA: GGGAUGUUGCUCCCCGGGAUACAGACAAGGUGUACGAAGUUUCAGCCGGUGGUCCCUCCCGGCUGAAGCUUCGUGCAC
B2: hsa-mir-181b-1 (structured_RNA)
RNA: GGGACACGGAGGGAGAAAUGAAGCGUAAGGUGUACGAAGUUUCAGCUGGGUUGAACUGUGUGGACAAGCUCAGCUGAAGCUUCGUGCAC
B3: hsa-mir-31 (structured_RNA)
RNA: GGGAAGACAUCGGUAUCAUGAGCCGCCAGGUGUACGAAGUUUCAGCAGCUGUUGAACUGGGAACCUGCUGCUGAAGCUUCGUGCAC
B4: hsa-mir-526a-1 (structured_RNA)
RNA: GGGACCAGACUACGGGAAAUUAAGUCUAGGUGUACGAAGUUUCAGCUCUGUUGCUUGAAAGAAGAGAGCUGAAGCUUCGUGCAC
B5: NEAT1_ParasoR_ID1 (structured_RNA)
RNA: GGGAUACCUUGCGUCCGAAGUUCUACCGGGUGUACGAAGUUUCAGCGGUUGGUGACACUGUUUUGUGAGAUGGGUUGAAAGCACGUGCUGCCAAAAUAGAAUAAUGUUGGUCCUCUCCGCUGAAGCUUCGUGCAC
B6: hsa-mir-1245b (structured_RNA)
RNA: GGGAAGAUUGACGGGUGUCGCACAAAACGGUGUACGAAGUUUCAGCUAAAGAGUAUUCAACAUCGCUGAAGCUUCGUGCAC
B7: hsa-mir-153-2 (structured_RNA)
RNA: GGGAGGUGGGAGAUUACGUAUUCGCGUAGGUGUACGAAGUUUCAGCGCAGCUAGUAAUAUGAGCCCAGUUGCGCUGAAGCUUCGUGCAC
B8: hsa-mir-5092 (structured_RNA)
RNA: GGGAAAGGAACCCAGCCGUCACAGAAAUGGUGUACGAAGUUUCAGCGACUGGACAACAUGAUGAGCCCAAACCAAUCGCUGAAGCUUCGUGCAC
B9: hsa-mir-4251 (structured_RNA)
RNA: GGGACGUCAUAACACGGCGAAAACUAAGGGUGUACGAAGUUUCAGCAGUGGCCAAUUCCUGCUGAAGCUUCGUGCAC
B10: hsa-mir-8065 (structured_RNA)
RNA: GGGAGAGUGACCCAAGACUGCCUUUAACGGUGUACGAAGUUUCAGCUGUAUUUUUCAGCAAGGCAAGGGCUUUGAUGUCUUGUAGCUGAAGCUUCGUGCAC
B11: hsa-mir-379 (structured_RNA)
RNA: GGGCAUCCUAUGGAUUCCCAGAUGCGGCGGUGUACGAAGUUUCAGCCGUAGGCGUUAUGAUUUCUGACCUAUGGCUGAAGCUUCGUGCAC
B12: hsa-mir-6503 (structured_RNA)
RNA: GGGAAUGGGUCUAAAGGUAAUGGAAUCUGGUGUACGAAGUUUCAGCUCCCCAGAAGCUGAGGAUUAGGGGAGCUGAAGCUUCGUGCAC
B13: hsa-mir-4291 (structured_RNA)
RNA: GGGAAGUCCUAUCUUCAGCCGGAAGCAGGGUGUACGAAGUUUCAGCAGCUGGGUGGAGGCAGAGCUGCUGAAGCUUCGUGCAC
B14: hsa-mir-639 (structured_RNA)
RNA: GGGAACAUGAGUGUUGCUAACAUGCGCCGGUGUACGAAGUUUCAGCCGGGGCGGACGCAGAGCCGCGUUUAGUCUAUCGGCUGAAGCUUCGUGCAC
B15: hsa-mir-6720 (structured_RNA)
RNA: GGGAGGACCACAAACCCGUAGUACUCAUGGUGUACGAAGUUUCAGCGCCGCGGAAGAAGGGGAAGCGCGCUGAAGCUUCGUGCAC
B16: hsa-mir-4526 (structured_RNA)
RNA: GGGAGAAAACAUAACGGUACUCAACGGUGGUGUACGAAGUUUCAGCAUGCCCCAGGUGACGUGCUGGGCUGCUGAAGCUUCGUGCAC
B17: hsa-mir-4764 (structured_RNA)
RNA: GGGAAUAUGACAUAUCACACCGUAGCGGGGUGUACGAAGUUUCAGCUUAUCUGUCACCAGUCAGAUAACUGUCACCAGUCAGUUAAGCUGAAGCUUCGUGCAC
B18: hsa-mir-376c (structured_RNA)
RNA: GGGAAAACUGUGCCUCGGACGACGUUAUGGUGUACGAAGUUUCAGCUGUUUAUGUUAUUUAUGGUUAAACAGCUGAAGCUUCGUGCAC
B19: hsa-mir-626 (structured_RNA)
RNA: GGGAAAUGUUGAUUAGGGCUUACAACGGGGUGUACGAAGUUUCAGCAUCUGAAUGAUCUCAGCGCUGAAGCUUCGUGCAC
B20: hsa-mir-3924 (structured_RNA)
RNA: GGGAAAGACAGAUGGCUCGGUACGAACUGGUGUACGAAGUUUCAGCAGAUCUAUGUCAUAUAUACAGAUAUGCUGAAGCUUCGUGCAC
B21: hsa-mir-9-2 (structured_RNA)
RNA: GGGAACUUAUGGCGCACAAUGGUAGGCGGGUGUACGAAGUUUCAGCGUAUGAGUGUAUUGGUCUUCAUAAGCUGAAGCUUCGUGCAC
B22: hsa-mir-345 (structured_RNA)
RNA: GGGAAUGCGCCCACAGGAACAAACUCUGGGUGUACGAAGUUUCAGCGGGCUCGUGAUGGCUGGUGGGCCCGCUGAAGCUUCGUGCAC
B23: hsa-mir-16-2 (structured_RNA)
RNA: GGGAAAGGUUAUGGGCGAGUCAGAAAAUGGUGUACGAAGUUUCAGCUUGGCGUAGUGAAAUAUAUAUUAAACACCAAGCUGAAGCUUCGUGCAC
B24: hsa-mir-4324 (structured_RNA)
RNA: GGGAAACUGGAGAUCGUGCAAAUUCGAGGGUGUACGAAGUUUCAGCCAGGGAACUUUAAAACCGCUGAAGCUUCGUGCAC
B25: hsa-mir-611 (structured_RNA)
RNA: GGGACAAACCAGGCGGGAAUAUUAGGAAGGUGUACGAAGUUUCAGCUCCAGACGGAGAUGCGAGCUGAAGCUUCGUGCAC
B26: hsa-mir-6853 (structured_RNA)
RNA: GGGAAAGCGUCUUAGCCGGAAAGGGUCAGGUGUACGAAGUUUCAGCGUCAGGUGAUGGUGAUAAGGUCAAGGCCUGGCUGAAGCUUCGUGCAC

In one assay the target is T1, LIN28A. As to the kind of experiment: FOREST: bead pull-down of RNA structure library v1, barcode microarray; U1A/LIN28A: 20 mM HEPES pH 7.5, 80 mM KCl, 20 mM NaCl, 10% glycerol, 2 mM DTT, 0.1 ug/uL BSA, 4 C; BG4/CIRBP/DHX36: 10 mM Tris-HCl pH 7.5, 100 mM KCl (or LiCl),; high values mean tight binding.
Turning to B1, the binding signal was 1.25 z-score.
The molecule B2 had a binding signal of 1.22 z-score.
For B3, the binding signal stood at 1.29 z-score.
In the case of B4, the binding signal is 1.3 z-score.
With B5, the binding signal was determined as 1.25 z-score.
In turn, B6 had a binding signal of 1.27 z-score.
Same read-out and setting: the result for B7 reads 1.22 z-score; that for B8, 1.26 z-score; that for B9, 1.23 z-score.
B10 registered a binding signal of 1.31 z-score.
The same measure, in the same setting: the value for B11 was 1.25 z-score; that for B12 was 1.29 z-score.
Molecule B13 gave a binding signal of 1.25 z-score.
Consider B14, for which the binding signal is 1.28 z-score.
The molecule B15 yielded a binding signal of 1.29 z-score.
The same measure, in the same setting: the result for B16 reads 1.28 z-score; that for B17, 1.29 z-score.
Same read-out and setting: the value for B18 was 1.3 z-score; that for B19 was 1.29 z-score.
Same read-out and setting: the result for B20 reads 1.26 z-score; that for B21, 1.31 z-score; that for B22, 1.28 z-score.
As to B23, the binding signal is 1.29 z-score.
Same read-out and setting: the value for B24 was 1.23 z-score; that for B25 was 1.29 z-score; that for B26 was 1.26 z-score.

In another assay the target is T2, CIRBP. The assay is described as above.
B1 yielded a binding signal of 0.486 z-score.
With B2, the binding signal came out at 1.77 z-score.
In turn, B3 yielded a binding signal of 0.981 z-score.
On the same count and under the same terms, the value for B4 was 0.0186 z-score; that for B5 was -0.0563 z-score; that for B6 was 0.905 z-score.
B7 registered a binding signal of 0.126 z-score.
Same read-out and setting: the result for B8 reads 0.938 z-score; that for B9, 0.107 z-score; that for B10, 0.576 z-score.
Turning to B11, the binding signal is -0.783 z-score.
The molecule B12 returned a binding signal of 0.353 z-score.
B13 displayed a binding signal of 2.09 z-score.
Regarding B14, the binding signal came out at 0.784 z-score.
Turning to B15, the binding signal came out at 0.503 z-score.
On to B16, for which the binding signal is 0.44 z-score.
For B17, the binding signal was 0.754 z-score.
Consider B18, for which the binding signal was 0.259 z-score.
Turning to B19, the binding signal is 0.985 z-score.
For B20, the binding signal was 1.43 z-score.
B21 showed a binding signal of 0.83 z-score.
The molecule B22 had a binding signal of -0.221 z-score.
Turning to B23, the binding signal amounted to 0.919 z-score.
The same measure, in the same setting: the value for B24 was 2.02 z-score.
Turning to B25, the binding signal came to 0.674 z-score.
Same read-out and setting: the value for B26 was 0.0457 z-score.

In the next assay the target is T3, DHX36. Described as above.
B1: the binding signal is 0.565 z-score.
B2 yielded a binding signal of 0.521 z-score.
For the molecule B3, the binding signal worked out at 0.286 z-score.
In the case of B4, the binding signal came to 1.2 z-score.
B5 yielded a binding signal of 0.249 z-score.
B6 gave a binding signal of -0.58 z-score.
As for B7, the binding signal was found to be 0.483 z-score.
With B8, the binding signal was 0.0117 z-score.
In turn, B9 returned a binding signal of -0.468 z-score.
In turn, B10 displayed a binding signal of -0.0834 z-score.
For the molecule B11, the binding signal was -1.39 z-score.
Regarding B12, the binding signal was determined as 0.815 z-score.
On to B13, for which the binding signal is 2.39 z-score.
B14 registered a binding signal of 0.445 z-score.
Still for that read-out and setting: the value for B15 was 0.869 z-score; that for B16 was -0.0671 z-score; that for B17 was -0.528 z-score.
In turn, B18 came in with a binding signal of 0.0421 z-score.
On the same count and under the same terms, the value for B19 was -0.74 z-score; that for B20 was 0.32 z-score.
Molecule B21 registered a binding signal of 1.14 z-score.
Regarding B22, the binding signal worked out at 1.02 z-score.
On the same count and under the same terms, the result for B23 reads -0.189 z-score; that for B24, 0.332 z-score.
B25 yielded a binding signal of 1.28 z-score.
On to B26, for which the binding signal was 0.104 z-score.
